From BindingDB's records for doi:10.1016/S0893-133X(96)00187-X (University of Toronto, 1997)

Target: 5-hydroxytryptamine receptor 2A (Rattus norvegicus) (UniProt P14842)

CC1CCN(CCCC(=O)c2ccc(F)cc2)CC1 [CAS_3575-80-2]
Ki: 280 nM
